# Apparent affinities of Ab-95 variants for a coronavirus HR2 peptide

Antigen: PDVDLGDISGINAS, a 14-residue peptide of the SARS-CoV-2 spike HR2 region.

Parent: Ab-95, a human scFv built as VH, a (GGGGS)3 linker, VL. Only the CDRs of the light chain vary.
VH: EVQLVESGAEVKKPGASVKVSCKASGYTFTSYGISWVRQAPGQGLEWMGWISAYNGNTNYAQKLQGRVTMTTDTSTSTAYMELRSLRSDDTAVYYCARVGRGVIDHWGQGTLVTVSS
VL: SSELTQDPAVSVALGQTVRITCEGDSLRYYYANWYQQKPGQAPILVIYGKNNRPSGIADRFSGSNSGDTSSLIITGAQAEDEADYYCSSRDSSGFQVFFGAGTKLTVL

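Phage display of a naive human antibody library on the peptide gave the parent. In library AAYL52, one, two or three CDR residues were substituted; doubles and triples were drawn at random. Affinity was read by AlphaSeq, a pooled yeast mating assay with surface-displayed partners. Mating (16 h, 30 °C) was followed by selection of diploids and sequencing of their barcodes. Scores were corrected for input abundance and mapped to Kd with protein pairs of known affinity run in the same pool. Each pool was mated in three replicate cultures.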

Substitutions are numbered in sequence along the VL above, starting at 1 (not Kabat). Every variant below is changed at G24 of the VL (sequential numbering). Values are apparent Kd, the geometric mean of the replicates that gave a signal; lower means stronger binding. "not detected" marks a missing value. The strain was present, yet no cells mated with the target were sequenced in any replicate, which points to weak or no binding. Order: sorted from the lowest average up, undetected variants last. Empty control strains, which show no peptide, gave a signal in 28% of pairings with library AAYL52; the median was 8.2 µM and 95% of these signals were weaker than 800 nM. No background was subtracted. For each scFv, signals with the empty controls are counted beside the result.

changes,apparent Kd,detected,empty controls
E23K G24H S89M,110 nM,3/3,5/9
G24L Y31G,300 nM,3/3,3/9
G24M S26K S88V,380 nM,3/3,6/9
E23T G24R F98A,460 nM,3/3,3/9
G24S V97S,580 nM,3/3,2/9
G24P Y30S G49H,840 nM,1/3,0/9
G24H S26I Y31D,900 nM,2/3,2/9
G24E R28L,910 nM,3/3,3/9
E23C G24H D25K,960 nM,2/3,3/9
G24F L27F S89C,1.1 µM,2/3,0/9
G24F,1.1 µM,3/3,3/9
G24L R28G S55C,1.2 µM,3/3,1/9
G24Q S89K R90K,1.3 µM,1/3,1/9
G24I S89I F98T,1.3 µM,2/3,0/9
G24W R28G F98Y,1.4 µM,3/3,3/9
E23P G24V,1.5 µM,3/3,2/9
G24Y G49F F98S,1.7 µM,1/3,1/9
G24L S88L S93Q,1.8 µM,1/3,1/9
E23G G24Y A32L,1.8 µM,3/3,4/9
G24D L27H Y30F,1.9 µM,3/3,1/9
G24H S93G V97C,2.7 µM,3/3,4/9
G24S N51R S93P,2.7 µM,2/3,2/9
G24I N52H,2.8 µM,2/3,2/9
E23A G24C V97L,4.0 µM,3/3,3/9
G24I N51K G94P,4.2 µM,1/3,5/9
E23I G24T Q96A,5.9 µM,1/3,3/9
G24P N33Y Q96P,7.3 µM,3/3,6/9
G24H N52W F95N,10 µM,2/3,2/9
G24P L27E F95H,13 µM,1/3,3/9
G24I D25W S92L,14 µM,2/3,2/9
G24H Y30I N33K,18 µM,1/3,5/9
G24F L27W N52Q,19 µM,2/3,3/9
G24L N51D R53P,21 µM,3/3,2/9
G24L Y31C F98K,25 µM,2/3,3/9
G24P S26Q G94T,27 µM,3/3,4/9
G24T S26Q S88K,28 µM,1/3,0/9
G24D D25L N33I,29 µM,1/3,2/9
G24Q S88I S93C,31 µM,3/3,5/9
G24F Y29A G49V,32 µM,1/3,3/9
G24L S88F V97S,32 µM,2/3,2/9
G24P S55K S88V,49 µM,3/3,3/9
G24E N51H V97I,94 µM,2/3,8/9
G24L L27Q G94D,110 µM,1/3,1/9
G24R N33T S89K,190 µM,1/3,6/9
G24N R90C G94S,240 µM,1/3,3/9
G24P S26Y R53T,310 µM,1/3,2/9
G24Q N52E V97A,not detected,0/3,0/9
G24L D25R N33S,not detected,0/3,0/9
E23A G24A S92F,not detected,0/3,2/9
G24S R90E F98G,not detected,0/3,4/9
G24A S89R R90S,not detected,0/3,1/9
G24A D91A F95I,not detected,0/3,0/9
G24E D25E S92P,not detected,0/3,4/9

Picked from the list: the 3 lowest averages where every replicate gave a value.

changes,apparent Kd,detected,empty controls
E23K G24H S89M,110 nM,3/3,5/9
G24L Y31G,300 nM,3/3,3/9
G24M S26K S88V,380 nM,3/3,6/9

The measurements come from Engelhart et al. 2022 (doi:10.1038/s41597-022-01779-4) through the FLAb antibody collection.